Measurements reported in patent US5889029A, “Use of cotinine in treating psychiatric disorders” (priority 1997, dated 1999).

Protein sequences, listed by entry. Tags and fused reporters are not part of them. Residues count along the entry.
UniProt P47747, whole entry: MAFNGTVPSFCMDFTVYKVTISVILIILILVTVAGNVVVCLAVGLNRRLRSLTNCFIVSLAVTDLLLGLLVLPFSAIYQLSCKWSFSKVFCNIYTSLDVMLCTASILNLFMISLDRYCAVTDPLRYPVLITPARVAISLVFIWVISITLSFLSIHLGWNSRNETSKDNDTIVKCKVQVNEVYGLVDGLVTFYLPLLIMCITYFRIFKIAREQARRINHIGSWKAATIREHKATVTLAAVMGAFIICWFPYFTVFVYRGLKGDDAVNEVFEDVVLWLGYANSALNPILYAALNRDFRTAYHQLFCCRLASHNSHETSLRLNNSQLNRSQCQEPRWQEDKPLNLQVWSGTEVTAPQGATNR
UniProt F6Q2H9, 1-422: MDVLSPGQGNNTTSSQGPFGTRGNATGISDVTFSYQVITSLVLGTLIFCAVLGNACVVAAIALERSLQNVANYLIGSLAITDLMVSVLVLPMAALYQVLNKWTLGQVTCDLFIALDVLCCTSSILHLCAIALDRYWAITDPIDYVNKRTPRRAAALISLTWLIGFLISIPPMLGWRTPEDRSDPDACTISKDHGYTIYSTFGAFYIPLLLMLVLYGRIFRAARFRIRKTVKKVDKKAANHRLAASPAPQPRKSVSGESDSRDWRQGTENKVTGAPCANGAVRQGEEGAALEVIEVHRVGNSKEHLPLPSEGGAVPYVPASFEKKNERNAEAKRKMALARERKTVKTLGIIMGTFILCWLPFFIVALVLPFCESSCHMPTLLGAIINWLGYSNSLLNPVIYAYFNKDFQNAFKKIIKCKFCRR
UniProt P18901, whole entry: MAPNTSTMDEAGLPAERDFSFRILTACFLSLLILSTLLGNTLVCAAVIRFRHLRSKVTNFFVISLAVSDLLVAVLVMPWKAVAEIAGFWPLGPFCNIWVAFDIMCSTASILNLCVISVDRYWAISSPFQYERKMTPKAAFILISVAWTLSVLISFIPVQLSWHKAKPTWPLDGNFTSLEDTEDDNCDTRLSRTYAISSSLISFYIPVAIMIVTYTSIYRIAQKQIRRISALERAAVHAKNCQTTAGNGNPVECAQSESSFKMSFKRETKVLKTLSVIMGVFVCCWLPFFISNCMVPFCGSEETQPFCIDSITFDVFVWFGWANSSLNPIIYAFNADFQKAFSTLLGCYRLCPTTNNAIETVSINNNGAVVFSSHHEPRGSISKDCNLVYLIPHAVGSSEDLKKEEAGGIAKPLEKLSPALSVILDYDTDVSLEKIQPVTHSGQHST

Columns and labels:
Histamine (H2) = molecular target: T1, Histamine (H2) (Cavia porcellus, UniProt P47747); assay: Histamine (H2) Binding Assay; conditions: reference compound; Guinea pig striatal membranes; [3H]Tiotidine
T1 construct: Guinea pig striatal membranes; from tissue; host or cells: guinea pig striatal membranes

Serotonin (5HT1A) = Serotonin (5HT1A) (Bos taurus, UniProt F6Q2H9); assay: Serotonin (5HT1A) Binding Assay
Dopamine (D1 Central) = Dopamine (D1 Central) (Rattus norvegicus, UniProt P18901); assay: Dopamine (D1 Central) Binding Assay

CN/C(=N/CCSCc1nc[nH]c1C)NC#N [Cimetidine, reference compound]
Ki (Histamine (H2)): 650 nM

COc1ccc2[nH]cc(C3=CCNCC3)c2c1 [RU 24969]
Ki (Serotonin (5HT1A)): 10 nM

O=C(CCCN1CCC2(CC1)C(=O)NCN2c1ccccc1)c1ccc(F)cc1 [Spiperone, reference compound]
Ki (Dopamine (D1 Central)): 843 nM
